Drawing on patent EP4378525A1, “NON PEPTIDERGIC AGONISTS OF OXYTOCIN RECEPTOR” (Université de Strasbourg, priority 2022, dated 2024), this text covers EC50 for one molecule.

By UniProt entry, the sequences of proteins in these tests, tags left out.
UniProt P30559, whole entry: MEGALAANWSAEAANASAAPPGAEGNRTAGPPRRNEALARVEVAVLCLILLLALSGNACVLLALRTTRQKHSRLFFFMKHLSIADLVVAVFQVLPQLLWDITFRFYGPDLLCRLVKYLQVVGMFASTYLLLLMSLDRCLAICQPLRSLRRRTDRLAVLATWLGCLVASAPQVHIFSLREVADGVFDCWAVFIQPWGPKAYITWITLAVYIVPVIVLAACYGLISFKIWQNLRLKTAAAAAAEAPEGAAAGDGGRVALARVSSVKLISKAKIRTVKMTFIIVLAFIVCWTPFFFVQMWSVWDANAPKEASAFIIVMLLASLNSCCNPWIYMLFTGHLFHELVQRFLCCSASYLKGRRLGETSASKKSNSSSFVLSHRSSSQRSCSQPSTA

For the assay, the target named is oxytocin receptor (Homo sapiens, UniProt P30559). Put plainly: IP-One IP1 accumulation assay in CHO cell lines expressing oxytocin receptor (agonist activation). The note with it: read-out: OT-R EC50, n=3, tested form: TFA.

Take `CN(C)C(=S)[C@@H]1C[C@@H](n2cc(CO)nn2)CN1C(=O)NCc1ccc(C(=O)N2Cc3cnn(C)c3Nc3ccccc32)cc1Cl`: the EC50 came out at 2.3 nM.
